Amino acid sequences for entries named in this document (tags omitted). A change or cut given only in a name is not applied to a line headed by its entry.
UniProt Q99572: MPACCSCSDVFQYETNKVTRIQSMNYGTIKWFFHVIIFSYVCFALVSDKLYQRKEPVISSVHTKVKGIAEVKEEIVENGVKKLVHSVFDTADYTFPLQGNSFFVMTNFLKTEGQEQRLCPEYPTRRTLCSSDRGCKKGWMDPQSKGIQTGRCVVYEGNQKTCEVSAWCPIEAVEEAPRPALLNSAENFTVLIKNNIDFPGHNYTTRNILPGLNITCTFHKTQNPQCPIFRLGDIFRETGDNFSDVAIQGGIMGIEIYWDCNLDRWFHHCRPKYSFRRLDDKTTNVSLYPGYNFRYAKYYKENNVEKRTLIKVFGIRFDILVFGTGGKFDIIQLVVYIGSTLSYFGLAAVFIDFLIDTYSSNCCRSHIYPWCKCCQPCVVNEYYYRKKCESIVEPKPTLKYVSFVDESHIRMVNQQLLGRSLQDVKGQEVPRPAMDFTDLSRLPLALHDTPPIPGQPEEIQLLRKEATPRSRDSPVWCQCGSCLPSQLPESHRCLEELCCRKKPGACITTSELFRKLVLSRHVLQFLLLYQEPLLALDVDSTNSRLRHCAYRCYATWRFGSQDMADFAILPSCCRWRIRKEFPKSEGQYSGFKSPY

In patent publication US10864212B2, “Compositions and methods for treating retinal degradation” (University of Kentucky Research Foundation, priority 2013, dated 2020):

Target: P2X7 receptor (Homo sapiens, UniProt Q99572)
Experiment: ATP-induced cell permeability to Yo-Pro1 in PMA-differentiated THP-1 cells (P2X7 receptor assay)
Format: cell-based
Set-up: THP-1 cells differentiated into macrophages by PMA allowed entry of the large fluorescent dye Yo-Pro 1; endogenous in cells; host or cells: THP-1 cells differentiated into macrophages by PMA
Conditions: THP-1 cells differentiated into macrophages by PMA; FIG. 17
Excerpt: FIG. 17 provides the results of the fluorescence measurement in relative fluorescence units (RFU, y-axis).
To prepare FIG. 17, THP-1 cells differentiated into macrophages by PMA allowed entry of the large fluorescent dye Yo-Pro 1, in an assay for P2X7 receptor activity. […] Indeed, FIG. 17 provides the results of the fluorescence measurement in relative fluorescence units (RFU, y-axis).

In the case of `Cc1cn([C@H]2C=C[C@@H](CO)O2)c(=O)[nH]c1=O` [d4T, 2′3′ dideoxythymidine], the “Yo-Pro entry induced by ATP (RFU)” value is reported as “dose-dependently reduced Yo-Pro entry induced by ATP”.
